Data from patent publication US12692265B2, “Solid state forms of Ensifentrine and process for preparation thereof” (ASSIA CHEMICAL INDUSTRIES LTD., priority 2021, dated 2026).

Experiments:
Format in all cases: physicochemical
[1] = Thermal stability (heating, XRPD); conditions: Heating 100° C., 30 minutes
Protocol: (§1) X-ray diffraction was performed on X-Ray powder diffractometer: • Bruker D8 Advance; CuKα radiation (λ=1.5418 Å); Lynx eye detector; laboratory temperature 22-25° C.; PMMA specimen holder ring with silicon low background. Prior to analysis, the samples were gently ground by means of mortar and pestle in order to obtain a fine powder. The ground sample was adjusted into a cavity of the sample holder and the surface of the sample was smoothed by means of a cover glass. Measurement Parameters: • Scan range: 2-40 degrees 2-theta; • Scan mode: continuous; • Step size: 0.05 degrees; • Time per step: 0.5 s; • Sample spin: 30 rpm; • Sample holder: PMMA specimen holder ring with silicon low background.
A sample of Ensifentrine ethane-1,2-disulfonate form ES2 was subjected to heating up to 100° C. for 30 minutes. XRPD analysis of the sample confirmed no change in the starting material (Table 4): […]

[2] = Storage stability at different relative humidities and temperatures, 6 months (XRPD); conditions: for at least 6 months
Protocol: as §1
Samples of Ensifentrine ethane-1,2-disulfonate form ES2 were subjected to conditions of different relative humidities at different temperatures. XRPD analysis was performed on the samples after 6 months.

[3] = Storage stability at different relative humidities, ambient temperature, 7 days (XRPD); conditions: for at least 7 days
Protocol: as §1
Samples of Ensifentrine ethane-1,2-disulfonate form ES2 were subjected to conditions of different relative humidities at ambient temperature. XRPD analysis was performed on the samples after 7 days.

Ensifentrine ethane-1,2-disulfonate
Result (thermal stability) [1]: Stable
Stability after exposure to high and low relative humidity at different temperatures [2]: stable
Stability after exposure to high and low relative humidity [3]: stable
